The subject of experiment [1] is B. napus wild type variety SR002201. Description: Greenhouse herbicide injury, visual scoring, wild type variety. The experiment is classed as in vivo, Brassica napus. The note with it: 15 g a.i./ha; spray at BBCH 12-13 with Mero 1 l/ha; visual scoring 14 days after application; 0%=no damage, 100%=all plants dead. On the procedure:
(§1) The individual components herbicide and surfactant with regard to type and application rate as stated in table 1 were added with stirring to a water application rate of 300 l/ha so that a homogeneous spray mixture was formed. The adjuvant Mero® (Bayer CropScience AG: active ingredient is 81% rapeseed oil methyl ester) was always added to the spray liquids with a use rate of one l/ha.
(§2) Seeds of B. napus were sown in a sandy loam soil and placed in a climate chamber in a greenhouse under good growth conditions (16 h light, temperature day 14° C., night: 8° C.). The plants (10 per experiment) were grown up to growth stage of BBCH 12 to BBCH 13. The plants were treated on a track sprayer with spray mixtures which had been prepared in accordance with the examples. After the treatment, the plants were returned to the climate chamber.
(§3) Visual scoring was carried out using a percentage scale of 0%=no damage to 100%=all plants dead.
Wild type seeds SR002201 for microspore isolation, culture and selection experiments of mutants have been deposited with the NCIMB, Aberdeen, UK, under Number NCIMB 41813.

The next experiment relates to B. napus mutant FM 202. It is filed as in vivo, Brassica napus. The note with it: 15 g a.i./ha; spray at BBCH 12-13 with Mero 1 l/ha; visual scoring 14 days after application; 0%=no damage, 100%=all plants dead. On the procedure:
as §1, §2, §3

Molecules are shown by their SMILES.

Turning to `COc1cc(OC)nc(NC(=O)NS(=O)(=O)c2ncccc2C2=NOCCO2)n1` [Compound A1-87], the “Herbicide injury on BRSNS [%] SR002201” value in experiment [1] is 95%. Besides, the “Herbicide injury on BRSNS [%] FM 202” value in the experiment on B. napus mutant FM 202 was determined as 0%.

Source of the values: patent US9370183B2, “Use of ALS inhibitor herbicides for control of unwanted vegetation in ALS inhibitor herbicide tolerant Brassica, such as B. napus, plants” (Bayer Intellectual Property GmbH, priority 2011, dated 2016).
